# In paper PMC3114813 (Environmental Health Perspectives, 2011):
# By UniProt entry, the sequences of proteins in these tests, tags left out.
# UniProt P10275, whole entry Q868H: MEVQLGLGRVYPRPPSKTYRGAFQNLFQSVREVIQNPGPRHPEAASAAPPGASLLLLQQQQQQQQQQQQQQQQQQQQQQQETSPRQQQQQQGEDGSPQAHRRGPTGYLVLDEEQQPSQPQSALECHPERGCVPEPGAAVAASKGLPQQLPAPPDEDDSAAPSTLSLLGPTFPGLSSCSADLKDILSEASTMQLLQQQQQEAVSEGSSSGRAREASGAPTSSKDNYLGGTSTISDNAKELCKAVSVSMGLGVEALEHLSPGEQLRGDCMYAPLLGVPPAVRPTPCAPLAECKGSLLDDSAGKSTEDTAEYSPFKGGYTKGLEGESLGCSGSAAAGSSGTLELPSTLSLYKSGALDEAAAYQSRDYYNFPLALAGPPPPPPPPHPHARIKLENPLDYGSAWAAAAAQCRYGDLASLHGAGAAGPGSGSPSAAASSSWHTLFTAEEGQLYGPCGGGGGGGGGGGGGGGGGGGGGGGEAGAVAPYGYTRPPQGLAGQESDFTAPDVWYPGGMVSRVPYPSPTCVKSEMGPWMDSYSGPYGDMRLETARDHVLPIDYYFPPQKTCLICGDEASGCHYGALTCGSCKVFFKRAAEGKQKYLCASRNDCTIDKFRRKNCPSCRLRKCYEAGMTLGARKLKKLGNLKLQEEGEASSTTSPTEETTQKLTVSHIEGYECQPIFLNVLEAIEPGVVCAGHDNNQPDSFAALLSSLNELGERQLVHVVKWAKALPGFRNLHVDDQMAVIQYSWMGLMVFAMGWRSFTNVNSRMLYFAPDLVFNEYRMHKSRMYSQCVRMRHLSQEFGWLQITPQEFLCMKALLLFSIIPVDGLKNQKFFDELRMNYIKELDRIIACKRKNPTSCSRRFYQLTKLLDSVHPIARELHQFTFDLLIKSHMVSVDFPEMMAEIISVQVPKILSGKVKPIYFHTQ
# Key:
# [1] = biological target: T1, androgen receptor (AR) (Homo sapiens, UniProt P10275); format: cell-based; conditions: read-out: Antiandrogen IC20 (μM) YAS
# T1 construct: expressed in transfected cells; host or cells: yeast (YAS strain)
# Description: Briefly, stimulation of the transfected AR causes a color change in the media, which is measured by absorbance at 540 nm (Labsystems Multiskan Multisoft, Vienna, VA, USA). Plates were also measured at 620 nm to measure cell growth (turbidity) to check for any cytotoxic effects that may have occurred. […] Incubation time was 53 hr at 28°C. […] Pesticide serial dilutions were tested in duplicate over two plates and were tested in two separate experiments.
# Specifically, a variety of nonlinear regression models were fitted independently to the same data set, and the best-fitting model was selected using a statistical goodness-of-fit criterion. […] Data considered to be statistically significant at p < 0.05 were analyzed using the best-fit approach as described above. All statistical analysis was performed using SAS statistical software (SAS Institute Inc., Cary, NC, USA). From the best-fitting model, we derived inhibitory concentrations for antiandrogenicity and effect concentrations for cytotoxicity.
# [2] = biological target: T2, androgen receptor (AR) (Homo sapiens, UniProt P10275, Q868H); format: cell-based
# T2 construct: MDA-kb2 cells are human breast cancer cells stably transfected with a firefly luciferase reporter gene; endogenous in cells; host or cells: MDA-kb2 (human breast cancer cells)
# Description: MDA-kb2 cells are human breast cancer cells stably transfected with a firefly luciferase reporter gene that is driven by an androgen-response element–containing promoter ([Wilson et al. 2002]). Details of the modified assay were published previously ([Ermler et al. 2010]). Briefly, cells were seeded at a concentration of 1 × 10^5 cells/mL in phenol red–free Leibowitz-15 medium (Invitrogen Ltd., Paisley, UK) containing 10% (charcoal-stripped) fetal calf serum (Invitrogen Ltd.) in white luminometer plates and allowed to attach for 24 hr. Cells were then exposed to eight serial dilutions of selected pesticides with or without DHT (0.25 nM). After 24 hr, luciferase activity was determined with SteadyGlo assay reagent (Promega UK Ltd., Southampton, Hampshire, UK) and measured in a plate reader (FLUOstar Optima, BMG Labtech GmbH, Offenburg, Germany). […] All concentrations were tested in duplicate over two plates, and each pesticide was measured at least twice in separate experiments. For comparative purposes, luminescence was normalized to DHT alone at coexposure concentration (maximum response, 100%) and solvent-only (ethanol) controls (minimum response, 0%). […]
# To analyze antiandrogenic action, raw luminescence readings were normalized on a plate-by-plate basis to the means of the positive DHT controls (n = 8) and the solvent controls (n = 8) ([Ermler et al. 2010]). […]
smiles,measurement,setting,value
COP(=S)(OC)SCn1nnc2ccccc2c1=O [Azinphos-methyl],IC20,[1],2.25 µM
same,IC20,[2]; read-out: Antiandrogen IC20 (μM) MDA-kb2,5.38 µM
same,ERR (environmental relevance ratio),"[2]; total exposure score / IC20 (MDA-kb2), recalculated using experimental data",2.9
